Data from US8853146B2, “Hapten compounds and compositions and uses thereof” (The Board of Trustees of the University of Arkansas, priority 2007, dated 2014).

Columns and labels:
mAb6H4 = test: RIA cross-reactivity profile, inhibition of [3H]-(+)METH binding to mAb6H4; parameters: species or system mouse; details: RIA IC50 value for METH/RIA IC50 value for test ligand
mAb4G9 = test: RIA cross-reactivity profile, inhibition of [3H]-(+)METH binding to mAb4G9; parameters: species or system mouse; details: RIA IC50 value for METH/RIA IC50 value for test ligand
mAb6H8 = test: RIA cross-reactivity profile, inhibition of [3H]-(+)METH binding to mAb6H8; parameters: species or system mouse; details: RIA IC50 value for METH/RIA IC50 value for test ligand
rats = test: (+)METH brain concentrations in rat overdose and mAb pretreatment models; type: in vivo; details: 1 mg/kg iv, without mAb
Protocol: The overdose model was designed to mimic a drug abuser taking a high iv (+)METH dose and treated with (+)METH mAb in the emergency room. In this model, rats received 1 mg/kg (+)METH (iv) followed 30 min later by an anti-(+)METH mAb dose. The mAb pretreatment model was designed to mimic an abuser in drug treatment administered an anti-(+)METH mAb medication at the start of behavioral modification therapy who relapses to (+)METH use. In this model, rats were pretreated with anti-(+)METH mAb6H4 and received a 1 mg/kg iv (+)METH dose the following day. This dose (without mAb) produced about 2.5 hrs of locomotor effects. Rats (3/time point) were sacrificed at varied times after (+)METH administration to determine (+)METH brain concentrations.

Substance: (+)-methamphetamine [(+)METH]
- Antibody Specificity (Relative Potency to METH), mAb6H4 (mAb6H4): 1.00
- Antibody Specificity (Relative Potency to METH), mAb4G9 (mAb4G9): 1.00
- Antibody Specificity (Relative Potency to METH), mAb6H8 (mAb6H8): 1.00
- duration of locomotor effects (rats): about 2.5 hrs
